In a melting point compilation (Tetko et al.; mined from patent text by program, amines drawn as free bases though some values may be those of a salt):

Compound	melting point
Clc1ccccc1N1CCNCC1	213 to 214 °C
CCc1ccc2c(c1)C=C(C(=O)O)C(C(F)(F)F)O2 (configuration not stated)	145 to 149 °C
